Data: patent US6114175A, “Compound for the antemortem diagnosis of Alzheimer's Disease and in vivo imaging and prevention of amyloid deposition” (priority 1998, dated 2000)
Read-outs that look alike come from different tables or passages of the source.

Amino acid sequences for entries named in this document (tags omitted). Residues count along the entry.
UniProt P05067, 681-714: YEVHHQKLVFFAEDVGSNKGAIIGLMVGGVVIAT

Legend:
control brain = test: Total [^14 C]Chrysamine G binding in control brain homogenates
Aβ(10-43) [1] = molecular target: T1, Aβ(10-43) (Homo sapiens, UniProt P05067); test: Inhibition of [^14 C]Chrysamine G binding to Aβ(10-43); settings: Congo red or the series
[2] = mouse, in vivo, iv
[3] = Tissue levels and metabolism of [^14 C]Chrysamine G in mice; settings: 15 min after i.v. injection
AD brain = test: Total [^14 C]Chrysamine G binding in AD brain homogenates
Down's syndrome brain = test: [^14 C]Chrysamine G binding in Down's syndrome brain homogenates; design: species or system human; settings: two patients, ages 23 and 51
Aβ(10-43) [4] = molecular target: T1, Aβ(10-43)

- total binding as ratio to cerebellum (CBR), Head of Caudate (control brain; n = 4, ± SEM): 0.95 ± .04 CBR
- total binding as ratio to cerebellum (CBR), Frontal Pole (control brain; n = 6, ± SEM): 0.87 ± .04 CBR
- total binding as ratio to cerebellum (CBR), Inferior Parietal (control brain; n = 8, ± SEM): 0.90 ± .08 CBR
- total binding as ratio to cerebellum (CBR), Occipital (control brain; n = 8, ± SEM): 0.77 ± .13 CBR
- total binding as ratio to cerebellum (CBR), Superior Temporal (control brain; n = 8, ± SEM): 0.86 ± .08 CBR
- total binding as ratio to cerebellum (CBR), Superior/Middle Frontal (control brain; n = 8, ± SEM): 0.73 ± .02 CBR
- brain/blood ratio ([2]; 15 min): over 10:1
- brain/blood ratio ([2]; 35 min): ~20:1
- brain/kidney ratio [3]: ~0.5
- total binding as ratio to cerebellum (CBR), Head of Caudate (AD brain; n = 7, ± SEM, p < 0.04): 1.76 ± .31 CBR
- total binding as ratio to cerebellum (CBR), Frontal Pole (AD brain; n = 10, ± SEM, p < 0.004): 1.87 ± .25 CBR
- total binding as ratio to cerebellum (CBR), Inferior Parietal (AD brain; n = 11, ± SEM, p < 0.001): 1.93 CBR
- total binding as ratio to cerebellum (CBR), Superior/Middle Frontal (AD brain; n = 11, ± SEM, p < 0.001): 1.84 ± .18 CBR
- total binding as ratio to cerebellum (CBR), Superior Temporal (AD brain; n = 11, ± SEM, p < 0.002): 1.63 ± .17 CBR
- total binding as ratio to cerebellum (CBR), Occipital (AD brain; n = 11, ± SEM, p < 0.02): 1.44 ± .20 CBR
- binding in Down's syndrome brain relative to control (Down's syndrome brain): above the control range
- kon (Aβ(10-43) [4]; read-out: association rate constant (k1)): 37500 M⁻¹ s⁻¹
- koff (Aβ(10-43) [4]; read-out: dissociation rate constant (k-1)): 0.0126 s⁻¹
SMILES: O=C(O)c1cc(N=Nc2ccc(-c3ccc(N=Nc4ccc(O)c(C(=O)O)c4)cc3)cc2)ccc1O [Chrysamine G, 4,4'-bis(3-carboxy-4-hydroxyphenylazo)-biphenyl]
- potency/affinity relative to another compound (Aβ(10-43) [1]): several fold greater than the affinity of Congo red
